Results taken from patent US20170122958A1, “Enzymes Functional Probes” (University of Dundee, priority 2013, published 2017).

Amino acid sequences for entries named in this document (tags omitted). Residues count along the entry.
UniProt P25440, 74-180 L110A limits assumed: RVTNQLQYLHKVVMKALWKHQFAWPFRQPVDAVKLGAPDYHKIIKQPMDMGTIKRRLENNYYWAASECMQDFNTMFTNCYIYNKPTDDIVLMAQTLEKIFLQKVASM
UniProt P25440, 344-453 L383A limits assumed: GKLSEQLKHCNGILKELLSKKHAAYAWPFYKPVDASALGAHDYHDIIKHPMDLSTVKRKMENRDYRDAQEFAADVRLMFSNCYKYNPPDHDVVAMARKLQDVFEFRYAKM

Key:
Format in all cases: binding
Brd4(1) = biological target: T1, Brd4(1) (Homo sapiens, UniProt O60885); assay: DSF thermal shift; conditions: wild type
T1 construct: Plasmids of the eight single BET bromodomain constructs Brd2(1), Brd2(2), Brd3(1), Brd3(2), Brd4(1), Brd4(2), Brdt(1) and Brdt(2); His6 (N); made in house; host or cells: E. coli BL21(DE3)

Brd4(2) = biological target: T2, Brd4(2) (Homo sapiens, UniProt O60885); assay: DSF thermal shift; conditions: wild type
T2 construct: Plasmids of the eight single BET bromodomain constructs Brd2(1), Brd2(2), Brd3(1), Brd3(2), Brd4(1), Brd4(2), Brdt(1) and Brdt(2); His6 (N); made in house; host or cells: E. coli BL21(DE3)

Brd2(1)*(Leu110-Ala) = Brd2(1)*(Leu110-Ala) (Homo sapiens, UniProt P25440, L110A); assay: ITC reverse titration of protein into compound; set-up: Plasmids of the eight single BET bromodomain constructs Brd2(1), Brd2(2), Brd3(1), Brd3(2), Brd4(1), Brd4(2), Brdt(1) and Brdt(2); His6 (N); made in house; host or cells: E. coli BL21(DE3); conditions: Brd2(1)*(Leu110-Ala) vs wild type Brd2(2), ITC Kd
Brd2(2)*(Leu383-Ala) = Brd2(2)*(Leu383-Ala) (Homo sapiens, UniProt P25440, L383A); assay: ITC reverse titration of protein into compound; set-up: Plasmids of the eight single BET bromodomain constructs Brd2(1), Brd2(2), Brd3(1), Brd3(2), Brd4(1), Brd4(2), Brdt(1) and Brdt(2); His6 (N); made in house; host or cells: E. coli BL21(DE3); conditions: Brd2(2)*(Leu383-Ala) vs wild type Brd2(1), ITC Kd
brd4(2)L387A = biological target: T3, brd4(2)L387A (Homo sapiens, UniProt O60885, L387A); assay: DSF thermal shift; conditions: mutant
T3 construct: Plasmids of the eight single BET bromodomain constructs Brd2(1), Brd2(2), Brd3(1), Brd3(2), Brd4(1), Brd4(2), Brdt(1) and Brdt(2); His6 (N); made in house; host or cells: E. coli BL21(DE3)

brd4(1)L094A = biological target: T4, brd4(1)L094A (Homo sapiens, UniProt O60885, L94A); assay: DSF thermal shift; conditions: mutant
T4 construct: Plasmids of the eight single BET bromodomain constructs Brd2(1), Brd2(2), Brd3(1), Brd3(2), Brd4(1), Brd4(2), Brdt(1) and Brdt(2); His6 (N); made in house; host or cells: E. coli BL21(DE3)

brdt(1)L063A = biological target: T5, brdt(1)L063A (Homo sapiens, UniProt Q58F21, L63A); assay: DSF thermal shift
T5 construct: Plasmids of the eight single BET bromodomain constructs Brd2(1), Brd2(2), Brd3(1), Brd3(2), Brd4(1), Brd4(2), Brdt(1) and Brdt(2); His6 (N); made in house; host or cells: E. coli BL21(DE3)

brdt(2)L306A = biological target: T6, brdt(2)L306A (Homo sapiens, UniProt Q58F21, L306A); assay: DSF thermal shift
T6 construct: Plasmids of the eight single BET bromodomain constructs Brd2(1), Brd2(2), Brd3(1), Brd3(2), Brd4(1), Brd4(2), Brdt(1) and Brdt(2); His6 (N); made in house; host or cells: E. coli BL21(DE3)
Procedure: (§1) DSF assays were performed on a LightCycler®480 from Roche or a Mx3005P Real Time PCR machine from Stratagene. […] SYPRO®Orange from Invitrogen Molecular Probes® was used as a reporter dye to monitor the denaturing process of the proteins. Samples were assayed on a 96-well plate with final protein concentrations of 2 μM for the LightCycler®480 and 6 μM for Mx3005P. Compounds were added at a final concentration of 10 μM for the LightCycler®480 and 30 μM for Mx3005P, while the tetra acetylated histone peptide was added to a final concentration of 100 μM and 300 μM respectively. […] The temperature was raised with a step of 0.6° C. per minute from 37° C. to 95° C. with the LightCycler®480 collecting 39 measurements per ° C., and 1° C. per minute from 25° C. to 95° C. with Mx3005P, collecting fluorescence readings at the end of each interval. Each sample was run in triplicates.
(§2) Collected data was analysed by IGOR Pro 6, a scientific software tool from Wave Metrics, Inc. Analysis was done following the recommendations of Niesen et al.. Fluorescence intensity was plotted as a function of temperature, generating a sigmoidal curve described by a two-state transition from folded to unfolded protein. Curves were fitted by the following sigmoidal equation: […]
(§3) A1 and A2 are the values of minimum and maximum intensities, respectively, x0 is the inflection point and dx is the rate. Fitted curves were differentiated in IGOR Pro 6 and the maximum of the first derivative was identified using the same program. These values correspond to the inflection points of the transition curves and thus to the melting temperatures of the proteins (Tm).

Brdt(1) = biological target: T7, Brdt(1) (Homo sapiens, UniProt Q58F21); assay: DSF thermal shift; conditions: wild type
T7 construct: Plasmids of the eight single BET bromodomain constructs Brd2(1), Brd2(2), Brd3(1), Brd3(2), Brd4(1), Brd4(2), Brdt(1) and Brdt(2); His6 (N); made in house; host or cells: E. coli BL21(DE3)
Procedure: as §1, §2, §3

Brdt(2) = biological target: T8, Brdt(2) (Homo sapiens, UniProt Q58F21); assay: DSF thermal shift; conditions: wild type
T8 construct: Plasmids of the eight single BET bromodomain constructs Brd2(1), Brd2(2), Brd3(1), Brd3(2), Brd4(1), Brd4(2), Brdt(1) and Brdt(2); His6 (N); made in house; host or cells: E. coli BL21(DE3)
Procedure: as §1, §2, §3

COC(=O)[C@@H](C)[C@@H]1N=C(c2ccc(Cl)cc2)c2cc(OC)ccc2-n2c(C)nnc21 (racemic) [Compound 6, (+−)-methyl (S)-2-((S)-6-(4-chlorophenyl)-8-methoxy-1-methyl-4H-benzo[f][1,2,4]triazolo[4,3-a][1,4]diazepin-4-yl)propanoate]
ΔTm Brd4(1) (Brd4(1)): 0.0 ± 0.1 K | ΔTm Brd4(2) (Brd4(2)): 0.1 ± 0.1 K

COC(=O)[C@H](C)[C@@H]1N=C(c2ccc(Cl)cc2)c2cc(OC)ccc2-n2c(C)nnc21 (racemic) [Compound 7, (+−)-methyl (R)-2-((S)-6-(4-chlorophenyl)-8-methoxy-1-methyl-4H-benzo[f][1,2,4]triazolo[4,3-a][1,4]diazepin-4-yl)propanoate]
Fold higher affinity / selectivity for mutant over wild type (Brd2(1)*(Leu110-Ala)): eighteen fold selectivity | Fold higher affinity / selectivity for mutant over wild type (Brd2(1)*(Leu110-Ala); listed as compound 7): eighteen fold higher | ΔTm Brd4(1) (Brd4(1)): 4.0 ± 0.4 K | ΔTm Brd4(2) (Brd4(2)): 4.7 ± 0.0 K | Fold higher affinity / selectivity for mutant over wild type (Brd2(2)*(Leu383-Ala)): sixty six fold selectivity | Fold higher affinity / selectivity for mutant over wild type (Brd2(2)*(Leu383-Ala); listed as compound 7): sixty six fold higher affinity | ΔTm Brd4(2)* (L387A) (brd4(2)L387A): 8.4 ± 0.1 K | ΔTm Brd4(1)* (L094A) (brd4(1)L094A): 10.7 ± 0.8 K

CCNC(=O)CC1N=C(c2ccc(Cl)cc2)c2cc(OC)ccc2-n2c(C)nnc21 (centres unmarked) [iBET, reference compound]
ΔTm Brdt(1) leucine to alanine mutant (brdt(1)L063A): 0.9 °C | ΔTm Brdt(2) leucine to alanine mutant (brdt(2)L306A): 3.0 °C | ΔTm Brdt(1) (Brdt(1)): 7.1 ± 0.5 K | ΔTm Brdt(2) (Brdt(2)): 5.4 ± 0.3 K
